Results taken from patent publication US12528818B2, “Compositions and methods for inhibition of RAS” (Leidos Biomedical Research, Inc., priority 2021, dated 2026).

How the values were obtained:
[1] = molecular target: Avi-KRAS G12C (1-169) GppNHp/RAF1 RBD-3xFLAG (52-151) (Homo sapiens, UniProt P01116, G12C); assay: biochemical; conditions: Raf1-GppNHp-KRAS G12C disruption, Raf1 RBD-KRAS G12C-GppNHp disruption assay IC50
[2] = molecular target: GppNHp-loaded KRAS4b (amino acids 1-169) G12C/C118S protein (Homo sapiens, UniProt P01116, C118S/G12C); assay: Covalent cysteine 12 modification by MALDI-TOF MS, GppNHp-loaded KRAS G12C; type: biochemical; conditions: 15 minutes reaction time
[3] = molecular target: GDP-loaded KRAS4b (amino acids 1-169) G12C/C118S protein (Homo sapiens, UniProt P01116, C118S/G12C); assay: Covalent cysteine 12 modification by MALDI-TOF MS, GDP-loaded KRAS G12C; type: biochemical; conditions: 15 minutes reaction time
[4] = compound 95 or later using 1 μM proteins
[5] = compounds 94 or before using 5 μM proteins

Structure (SMILES)	IC50 [1] [µM]	GppNHp-KRAS G12C percent of modification [2, 4]	GDP-KRAS G12C percent of modification [3, 4]	GppNHp-KRAS G12C percent of modification [2, 5]	GDP-KRAS G12C percent of modification [3, 5]
C=CC(=O)N1CC[C@@H](N(C)c2nc(OCC34CCCN3CCC4)nc3c(F)c(-c4ccc(F)c5sc(N)nc45)c(C(F)(F)F)cc23)C1 (atropisomer, axis not shown) [Compound 221]	0.5 to 5	D (percent of modification <10%)	D (percent of modification <10%)		
C=CC(=O)N1CC[C@@H](N(C)c2nc(OCC34CCCN3CCC4)nc3c(F)c(-c4ccc(F)c5sc(N)nc45)c(C(F)(F)F)cc23)C1 (atropisomer, axis not shown) [Compound 222]	< 0.5	A (percent of modification ≥70%)	A (percent of modification ≥70%)		
C=CC(=O)N1CC[C@@H](N(C)c2nc(OC[C@@H]3CC(F)(F)CN3C)nc3c(F)c(-c4ccc(F)c5sc(N)nc45)c(C(F)(F)F)cc23)C1 (atropisomer, axis not shown) [Compound 228]	0.5 to 5	C (10%≤percent of modification <50%)	A (percent of modification ≥70%)		
C=CC(=O)N1CC[C@@H](N(C)c2nc(OC[C@@H]3CC(F)(F)CN3C)nc3c(F)c(-c4ccc(F)c5sc(N)nc45)c(C(F)(F)F)cc23)C1 (atropisomer, axis not shown) [Compound 229]	> 20	D (percent of modification <10%)	D (percent of modification <10%)		
C=CC(=O)N1CC[C@@H](N(C)c2nc(OC[C@@H]3C[C@@H](F)CN3C)nc3c(F)c(-c4ccc(F)c5sc(N)nc45)c(C(F)(F)F)cc23)C1 (atropisomer, axis not shown) [Compound 231]	< 0.5	D (percent of modification <10%)	A (percent of modification ≥70%)		
C=CC(=O)N1CC[C@@H](N(C)c2nc(OC[C@@H]3C[C@@H](F)CN3C)nc3c(F)c(-c4ccc(F)c5sc(N)nc45)c(C(F)(F)F)cc23)C1 (atropisomer, axis not shown) [Compound 232]	0.5 to 5	D (percent of modification <10%)	D (percent of modification <10%)		
C=CC(=O)N1CC[C@@H](N(C)c2c(C#N)c(OC[C@@]34CCCN3C[C@H](F)C4)nc3c(F)c(-c4ccc(F)c5sc(N)nc45)c(Cl)cc23)C1 (atropisomer, axis not shown) [Compound 234]	> 20	D (percent of modification <10%)	C (10%≤percent of modification <50%)		
C=CC(=O)N1CCC[C@@H](N(C)c2nc(OC[C@@]34CCCN3C[C@H](F)C4)nc3c(F)c(-c4ccc(F)c5sc(N)nc45)c(Cl)cc23)C1 (atropisomer, axis not shown) [Compound 241]	< 0.5	C (10%≤percent of modification <50%)	A (percent of modification ≥70%)		
C=CC(=O)N1CCC[C@@H](N(C)c2nc(OC[C@@]34CCCN3C[C@H](F)C4)nc3c(F)c(-c4ccc(F)c5sc(N)nc45)c(C(F)(F)F)cc23)C1 (atropisomer, axis not shown) [Compound 244]	< 0.5	B (50≤percent of modification <70%)	A (percent of modification ≥70%)		
C=CC(=O)N1CCC[C@@H](N(C)c2nc(OC[C@@]34CCCN3C[C@H](F)C4)nc3c(F)c(-c4ccc(F)c5sc(N)nc45)c(C(F)(F)F)cc23)C1 (atropisomer, axis not shown) [Compound 245]	0.5 to 5	D (percent of modification <10%)	D (percent of modification <10%)		
C=CC(=O)N1C[C@H](N(C)c2ncnc3c(F)c(-c4ccc(F)c5sc(N)nc45)c(C(F)(F)F)cc23)C[C@H]1C (atropisomer, axis not shown) [Compound 250]	0.5 to 5	D (percent of modification <10%)	A (percent of modification ≥70%)		
C=CC(=O)N1C[C@H](N(C)c2ncnc3c(F)c(-c4ccc(F)c5sc(N)nc45)c(C(F)(F)F)cc23)C[C@H]1C (atropisomer, axis not shown) [Compound 251]	> 20	D (percent of modification <10%)	D (percent of modification <10%)		
C=CC(=O)N1CC[C@@H](N(C)c2nc(OC[C@@H]3CC4(CC4)CN3C)nc3c(F)c(-c4ccc(F)c5sc(N)nc45)c(C(F)(F)F)cc23)C1 (atropisomer, axis not shown) [Compound 255]	< 0.5	A (percent of modification ≥70%)	A (percent of modification ≥70%)		
C=CC(=O)N1CC[C@@H](N(C)c2nc(OC[C@@H]3CC4(CC4)CN3C)nc3c(F)c(-c4ccc(F)c5sc(N)nc45)c(C(F)(F)F)cc23)C1 (atropisomer, axis not shown) [Compound 256]	0.5 to 5	C (10%≤percent of modification <50%)	C (10%≤percent of modification <50%)		
C=CC(=O)N1C[C@H](N(C)c2ncnc3c(F)c(-c4ccc(F)c5sc(N)nc45)c(C(F)(F)F)cc23)C2(CC2)C1 (atropisomer, axis not shown) [Compound 263]	> 20	D (percent of modification <10%)	B (50≤percent of modification <70%)		
C=CC(=O)N1C[C@H](C)N(c2nc(OC[C@@]34CCCN3C[C@H](OC)C4)nc3c(F)c(-c4ccc(F)c5sc(N)nc45)c(C(F)(F)F)cc23)C[C@H]1C (atropisomer, axis not shown) [Compound 289]	< 0.5	C (10%≤percent of modification <50%)	C (10%≤percent of modification <50%)		
C=CC(=O)N1CC[C@@H](N(c2nc(OC[C@@]34CCCN3C[C@H](F)C4)nc3c(F)c(-c4ccc(F)c5sc(N)nc45)c(C(F)(F)F)cc23)C2CC2)C1 (single isomer, unassigned) [Compound 236]	< 0.5	B (50≤percent of modification <70%)	A (percent of modification ≥70%)		
C=CC(=O)N1CC[C@@H](N(c2nc(OC[C@@]34CCCN3C[C@H](F)C4)nc3c(F)c(-c4ccc(F)c5sc(N)nc45)c(C(F)(F)F)cc23)C2CC2)C1 (single isomer, unassigned) [Compound 237]	0.5 to 5	D (percent of modification <10%)	D (percent of modification <10%)		
C=CC(=O)N1CC[C@@H](N(C)c2nc(OC[C@@]34CCCN3C[C@H](F)C4)nc3c(F)c(-c4ccc(F)c5sc(N)nc45)c(C(F)(F)F)cc23)C1 (single isomer, unassigned) [Compound 240]	0.5 to 5	D (percent of modification <10%)	D (percent of modification <10%)		
C=CC(=O)N1CC[C@@H](Nc2nc(OC[C@@]34CCCN3C[C@H](F)C4)nc3c(F)c(-c4ccc(F)c5sc(N)nc45)c(C(F)(F)F)cc23)C1 (single isomer, unassigned) [Compound 271]	< 0.5	A (percent of modification ≥70%)	A (percent of modification ≥70%)		
C=CC(=O)N1CC[C@@H](Nc2nc(OC[C@@]34CCCN3C[C@H](F)C4)nc3c(F)c(-c4ccc(F)c5sc(N)nc45)c(C(F)(F)F)cc23)C1 (single isomer, unassigned) [Compound 272]	0.5 to 5	D (percent of modification <10%)	D (percent of modification <10%)		
C=CC(=O)N1CC(Nc2ncnc3c(F)c(-c4ccc(F)c5sc(N)nc45)c(Cl)cc23)C1 [Compound 4, 1-(3-((7-(2-amino-7-fluorobenzo[d]thiazol-4-yl)-6-chloro-8-fluoroquinazolin-4-yl)amino)azetidin-1-yl)prop-2-en-1-one]	5 to 20			D (percent of modification <10%)	A (percent of modification ≥70%)
Nc1nc2c(-c3c(Cl)cc4c(NC5CN(C(=O)CCl)C5)ncnc4c3F)ccc(F)c2s1 [Compound 5, 1-(3-((7-(2-amino-7-fluorobenzo[d]thiazol-4-yl)-6-chloro-8-fluoroquinazolin-4-yl)amino)azetidin-1-yl)-2-chloroethan-1-one]	0.5 to 5			A (percent of modification ≥70%)	A (percent of modification ≥70%)
C=CC(=O)N1CCN(c2ncnc3c(F)c(-c4ccc(F)c5sc(N)nc45)c(Cl)cc23)CC1 [Compound 7]	> 20			D (percent of modification <10%)	A (percent of modification ≥70%)
Nc1nc2c(-c3c(Cl)cc4c(N5CCN(C(=O)CCl)CC5)ncnc4c3F)ccc(F)c2s1 [Compound 8]	0.5 to 5			A (percent of modification ≥70%)	A (percent of modification ≥70%)
Nc1nc2c(-c3c(Cl)cc4c(N5CCN(C(=O)CCl)CC5)ncnc4c3O)ccc(F)c2s1 [Compound 16]	5 to 20			B (50≤percent of modification <70%)	A (percent of modification ≥70%)
C=CC(=O)N1CC[C@@H](N(C)c2nc(OCCO)nc3c(F)c(-c4ccc(F)c5sc(N)c(C#N)c45)ccc23)[C@H]1C [Compound 468]	0.5 to 5				
